# US20130046171A1, “DEVICE AND METHOD FOR ACCESSING AND TREATING DUCTS OF MAMMARY GLANDS” (priority 2008, published 2013)
# Test system: ductal carcinoma in situ, MNU-induced tumor formation
# Experiment: MNU-induced tumor formation rat model, teat infusion of anticancer agents
# Type: in vivo, Sprague Dawley rats
# Conditions: 1.67 mg/teat; necropsy Day 120±2
# Excerpt: The objective of this study was to evaluate the efficacy of five test articles (four marketed anticancer agents), administered directly into the mammary gland ducts via teat infusion, for therapy and prevention of ductal carcinoma in situ in an N-Nitroso-N-Methylurea (MNU)-induced tumor formation rat model. Based upon previous animal studies, candidates were selected for more rigorous evaluation at B Braun Biological Test Center (BTC) in Irvine, Calif. This facility was chosen to continue the preclinical work, started by Dr. Sukumar at JHU in order to support studies with a larger number of animals, in compliance with Good Laboratory Practices.
# Methods: The cytotoxic agents included carboplatin (tested at two dose levels), Taxol® (paclitaxel), Herceptin® (trastuzumab), and Doxil® (doxorubicin HCl). The agents were tested in 120 female Sprague Dawley rats (n=20 per treatment). On Day 1, each rat was injected intraperitoneally with MNU to induce tumor formation. On Day 15, each rat received one of the following six intra-ductal treatments: No treatment (control); infusion of carboplatin (0.75 mg/teat); infusion of Taxol® (0.15 mg/teat); infusion of carboplatin (0.42 mg/teat); infusion of Herceptin® (1.67 mg/teat); or infusion of Doxil® (0.15 mg/teat). Each rat was dosed in 11-12 teats except for one rat with 5 non-infusable teats. […]
substance,measurement,value
trastuzumab [Herceptin®],rats with no visible masses or mammary lesions at necropsy,4 of 20
